This is an account of results in publication PMC8122075 (Nature, 2021).

This data set deals with the molecule itself. As to the kind of experiment: cryo-EM structure.

B1: XLF (natural protein)
chain: MEELEQGLLMQPWAWLQLAENSLLAKVFITKQGYALLVSDLQQVWHEQVDTSVVSQRAKELNKRLTAPPAAFLCHLDNLLRPLLKDAAHPSEATFSCDCVADALILRVRSELSGLPFYWNFHCMLASPSLVSQHLIRPLMGMSLALQCQVRELATLLHMKDLEIQDYQESGATLIRDRLKTEPFEENSFLEQFMIEKLPEACSIGDGKPFVMNLQDLYMAVTTQEVQVGQKHQGAGDPHTSNSASLQGIDSQCVNQPEQLVSSAPTLSAPEKESTGTSGPLQRPQLSKVKRKKPRGLFS
For the protein B1, the “stoichiometry N” value was 2.
